The test addresses matriptase (Homo sapiens (Human), UniProt Q9Y5Y6). As to the kind of experiment: Determination of the matriptase inhibition (chromogenic substrate CH3SO2-D-Cha-Gly-Arg-pNA, Dixon Ki). In kind it is biochemical. The note with it: 25° C., pH 8.0; means of at least two determinations. As for the experimental part: Determination of the Matriptase Inhibition
To determine the inhibition effect, 200 μl Tris buffer (inhibitor contains 0.05 M, 0.154 M NaCl, 5% ethanol, pH 8.0), 25 μl substrate (CH3SO2-D-Cha-Gly-Arg-pNA; 2 and 1 mM) and 50 μl matriptase (0.5 μg/ml) were incubated at 25° C. After 3 min the reaction was halted through the addition of 25 μl acetic acid (50%) and the Absorption determined at 405 nm by means of a Microplate Reader (Multiscan Ascent from the company Thermo Electron Corporation). The Ki values were calculated according to Dixon (Biochem. J. 55, 170-171, 1953) through linear regression by means of a computer program. The Ki-values are the means of at least two determinations.
Ki value for the inhibition of matriptase in nM (n.d.=not determined)

Chains of the proteins cited; added tags and fusions are not shown. Lines headed by an entry give the natural chain unless they say otherwise; changes in a name come on top.
UniProt Q9Y5Y6: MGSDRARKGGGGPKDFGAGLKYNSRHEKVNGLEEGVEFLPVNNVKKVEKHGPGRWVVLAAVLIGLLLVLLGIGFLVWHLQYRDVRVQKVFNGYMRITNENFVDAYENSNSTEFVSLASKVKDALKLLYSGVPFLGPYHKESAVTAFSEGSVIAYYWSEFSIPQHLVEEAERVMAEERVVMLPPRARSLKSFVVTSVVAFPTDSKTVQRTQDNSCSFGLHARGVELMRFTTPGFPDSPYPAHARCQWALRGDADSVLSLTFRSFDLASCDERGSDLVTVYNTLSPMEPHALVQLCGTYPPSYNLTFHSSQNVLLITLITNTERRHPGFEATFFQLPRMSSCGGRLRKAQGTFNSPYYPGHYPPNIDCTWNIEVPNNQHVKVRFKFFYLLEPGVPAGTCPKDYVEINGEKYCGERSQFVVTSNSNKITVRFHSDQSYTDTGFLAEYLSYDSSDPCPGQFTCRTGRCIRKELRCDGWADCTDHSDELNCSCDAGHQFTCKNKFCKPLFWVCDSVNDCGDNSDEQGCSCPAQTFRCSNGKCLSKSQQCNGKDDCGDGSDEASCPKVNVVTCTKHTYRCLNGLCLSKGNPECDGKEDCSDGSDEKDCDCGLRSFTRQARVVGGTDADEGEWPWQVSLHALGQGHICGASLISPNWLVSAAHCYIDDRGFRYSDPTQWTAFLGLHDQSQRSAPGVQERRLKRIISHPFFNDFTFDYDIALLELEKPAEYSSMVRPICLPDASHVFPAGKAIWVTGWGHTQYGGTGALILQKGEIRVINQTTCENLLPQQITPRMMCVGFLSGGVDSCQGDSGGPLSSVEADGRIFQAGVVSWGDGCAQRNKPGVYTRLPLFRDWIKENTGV

The record followed here is patent US8569313B2, “Meta-substituted phenyl sulfonyl amides of secondary amino acid amides, the production thereof, and use thereof as matriptase inhibitors” (The Medicines Company (Leipzig) GmbH, priority 2007, dated 2013).

In the case of “CH3-PEG1000-CH2—CH2—CO-Dap-3-NH-phenyl sulfonyl-Phe(3-Am)-4-(2-amino ethyl)-piperidide [Inhibitor 49]”, the affinity, expressed as Ki, was 21.8 nM.
